Results published in ChEMBL document CHEMBL1240490, “Novel carbamates as orally active acetylcholinesterase inhibitors found to improve scopolamine-induced cognition impairment: pharmacophore-based virtual screening, synthesis, and pharmacology” (J Med Chem, 2010).

Protein sequences, listed by entry. Tags and fused reporters are not part of them. Lines headed by an entry give the natural chain unless they say otherwise; changes in a name come on top.
UniProt P22303: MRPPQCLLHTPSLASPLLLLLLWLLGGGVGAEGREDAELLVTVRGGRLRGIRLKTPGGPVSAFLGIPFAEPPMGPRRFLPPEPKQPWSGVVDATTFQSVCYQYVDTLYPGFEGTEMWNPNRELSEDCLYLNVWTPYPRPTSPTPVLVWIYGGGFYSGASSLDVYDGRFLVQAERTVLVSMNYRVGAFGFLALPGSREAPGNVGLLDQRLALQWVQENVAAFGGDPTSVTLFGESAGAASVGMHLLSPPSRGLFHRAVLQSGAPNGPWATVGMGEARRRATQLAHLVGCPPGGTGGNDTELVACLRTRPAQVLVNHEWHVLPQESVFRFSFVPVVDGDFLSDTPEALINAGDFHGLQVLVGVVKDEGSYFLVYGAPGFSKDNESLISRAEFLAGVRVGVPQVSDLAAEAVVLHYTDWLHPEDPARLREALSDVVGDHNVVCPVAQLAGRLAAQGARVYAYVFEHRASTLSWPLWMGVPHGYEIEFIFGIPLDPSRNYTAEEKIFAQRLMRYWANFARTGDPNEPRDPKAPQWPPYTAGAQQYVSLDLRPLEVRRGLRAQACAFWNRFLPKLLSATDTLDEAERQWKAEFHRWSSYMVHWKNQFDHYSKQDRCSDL

How the values were obtained:
Acetylcholinesterase [1] = target: T1, Acetylcholinesterase (Homo sapiens, UniProt P22303)
Acetylcholinesterase [2] = target: T1, Acetylcholinesterase; remark: listed apart in the source

| SMILES | logIC50 (Acetylcholinesterase [1]) | IC50 (Acetylcholinesterase [2]) [µM] |
| --- | --- | --- |
| CN1CC[C@@]2(C)c3cc(OC(=O)Nc4ccccc4)ccc3N(C)[C@@H]12 | 1.34 | – |
| CC(C)c1ccc(NC(=O)Oc2ccc3c(c2)[C@]2(C)CCN(C)[C@@H]2N3C)cc1 [4-ISOPROPYLPHENSERINE] | 2.04 | 0.11 |
